Values quoted from earlier work as cited in publication PMC11544004.

By UniProt entry, the sequences of proteins in these tests, tags left out. Residues count along the entry.
UniProt P42081, 24-247: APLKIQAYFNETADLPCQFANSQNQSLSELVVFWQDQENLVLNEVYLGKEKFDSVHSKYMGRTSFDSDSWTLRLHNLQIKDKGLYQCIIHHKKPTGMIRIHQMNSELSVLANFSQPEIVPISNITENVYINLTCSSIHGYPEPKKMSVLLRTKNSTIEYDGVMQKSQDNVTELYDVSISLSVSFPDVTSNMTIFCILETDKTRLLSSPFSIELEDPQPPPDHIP

Experiments:
[1] = target: CD86 (Homo sapiens) (UniProt P42081)
[2] = target: CD80 (Homo sapiens) (UniProt P33681)

Kd [1]: 2000 nM
Kd [2]: 460 nM
Substance: CTLA-4 (from UniProt P16410)
